Screening data (PubChem BioAssay)
A selection: hits, their analogues and other compounds. The true share with any hit is near 16%.
uPA generation = inhibitors of cell surface uPA generation | actives 0.31% (n = 330,000) | Potency, µM (top dose mostly 38.3 µM), for the others: at the highest dose activity change, negative = inhibition, hits mostly inhibitors | cell surface uPA generation assay, qHTS; active means well fitted inhibition curve with a large enough effect; inconclusive means small, poorly fitted or top-dose-only effect; inactive means no such curve, though single readings can be large or run the other way; tested in mouse RAW 264.7 cells; further: potency means the concentration at half of the fitted maximal effect; on the % scale 0 is the no-effect control and ±100 the full control effect; nearly all actives have a fitted effect of over 55% in size
miR-21 reporter = miR-21 reporter, rising signal | AID 2288 | HeLa miR-21 FLuc reporter, luciferase, 48 h | 340,000 tested, under 10 active | Potency, µM (doses to about 38.3 µM), for inactives: at the top dose reporter change, positive = more light; active = well fitted rising curve with a large enough effect; inconclusive = small, poorly fitted or top-dose-only effect; inactive = no such curve, though single readings can be large or run the other way;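 note: % of control where 0% means no effect; miR-21 action dims this reporter so a rising signal means less miR-21 action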
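HeLa cells endogenously expressing miR-21, stably carrying CMV-driven firefly luciferase with a downstream miR-21 binding site, 2000 cells/well. Titrations up to approximately 40 uM, 48 hours; luciferase luminescence read.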
TDP1 block = inhibitors of human tyrosyl-DNA phosphodiesterase TDP1. recombinant TDP1, AlphaScreen DNA substrate cleavage. actives 0.28% (n = 350,000). AID 485290. Potency, µM (top dose mostly 130 µM), for the others: at the highest dose activity change, negative = inhibition, usual class: inhibitors; further: potency means the concentration at half of the fitted maximal effect; on the % scale 0 is the no-effect control and ±100 the full control effect; nearly all actives have a fitted effect of over 40% in size
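Signal: AlphaScreen proximity between streptavidin donor and anti-FITC acceptor beads on intact substrate. Reaction: Tdp1 1 nM, substrate 15 nM final, 5 min RT after 15 min compound preincubation.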
DT40 TDP1 no CPT = qHTS for Inhibitors of human tyrosyl-DNA phosphodiesterase 1 (TDP1): qHTS in cells in absence of CPT; DT40 Tdp1-/- hTDP1 cells, no CPT, ATP luminescence, 48 h; Potency, µM (titrated, usually from 46.2 µM), for inactives: top-dose activity change, negative = growth inhibition, actives largely listed as inhibitors; actives 15% (n = 420,000); further: potency means the concentration at half of the fitted maximal effect; on the % scale 0 is the no-effect control and ±100 the full control effect; nearly all actives have a fitted effect of over 55% in size
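Seeded 400 DT40-hTDP1 cells/well (vehicle DMSO, no 20 nM CPT); pinned compounds; ≥48 hr at 37 °C; CellTiter-Glo luminescence as viability measure.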
DT40 TDP1 CPT = DT40-hTDP1 cell growth loss with CPT. chicken DT40 Tdp1-/-;hTDP1 cells + 20 nM CPT, ATP luminescence, 48 h. Potency, µM (highest dose often 46.2 µM), without a hit: at the highest dose activity change, negative = growth inhibition, hits mostly inhibitors. actives 12% (n = 420,000); further: potency means the concentration at half of the fitted maximal effect; on the % scale 0 is the no-effect control and ±100 the full control effect; nearly all actives have a fitted effect of over 55% in size
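Cell growth measured by CellTiter-Glo luminescence after a minimum 48 h, 37 C compound exposure with 20 nM CPT in Tdp1-knockout DT40 cells stably expressing hTDP1, seeded 400/well; qHTS titration format.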
Active calls of the source: *; ? = inconclusive; nt = not tested or not shown; [ ] = remark or other dose. Unless noted, the call rests on the fitted dose curve; in most records, active means well fitted curve in the direction sought with a large enough effect; inconclusive means small, poorly fitted or top-dose-only effect, or another doubt; inactive means no such curve, though single readings can be large; an effect the other way counts as inactive or inconclusive.

Letters – A = uPA generation; B = miR-21 reporter; C = TDP1 block; D = DT40 TDP1 no CPT; E = DT40 TDP1 CPT
CC1(C(=O)NS(=O)(=O)c2ccccc2)CCN1C(=O)C1(c2ccc(Cl)cc2)CC1 (stereo not drawn)
  A: nt; B: nt; C: nt; D: 0%; E: ?
CC1(C(=O)Nc2ccccc2)CCN1C(=O)C1(c2ccc(Cl)cc2)CC1 (stereo not drawn)
  A: nt; B: nt; C: nt; D: 3.7µM*; E: ?
CC1(C(=O)N2Cc3ccccc3C2)CCN1C(=O)C1(c2ccccc2)CC1 (stereo not drawn)
  A: nt; B: nt; C: nt; D: 21µM*; E: ?
Cc1ccc(S(=O)(=O)NC(=O)C2(C)CCN2C(=O)C2(c3ccc(Cl)cc3)CC2)cc1 (stereo not drawn)
  A: nt; B: nt; C: nt; D: -8%; E: -7%
CC1(C(=O)Nc2ccc3nc[nH]c3c2)CCN1C(=O)C1(c2ccccc2)CC1 (stereo not drawn)
  A: nt; B: nt; C: nt; D: -7%; E: ?
CSc1ccc(NC(=O)C2(C)CCN2C(=O)C2(c3ccccc3)CC2)cc1 (stereo not drawn)
  A: nt; B: nt; C: nt; D: ?; E: 18µM*
Cc1ccc(NC(=O)C2(C)CCN2C(=O)C2(c3ccc(Cl)cc3)CC2)cc1 (stereo not drawn)
  A: nt; B: nt; C: nt; D: 18µM*; E: 15µM*
Cc1cc(O)c2c(c1)C(O)(C1OC(CO)C(O)C(O)C1O)c1cccc(O)c1C2=O (stereo not drawn)
  A: 11%; B: -6%; C: -5%; D: 1%; E: 7%
CCN(c1ccccc1)S(=O)(=O)c1nnc(NC(=O)CC(C)C)s1
  A: 2%; B: 1%; C: nt; D: 15%; E: 23%
Cn1cnnc1Sc1nc([N+](=O)[O-])nn1C
  A: 10%; B: -2%; C: 0%; D: 6%; E: -1%
COc1ccccc1-c1nnc(Sc2nc([N+](=O)[O-])nn2C)o1
  A: nt; B: ?; C: 2%; D: 16µM*; E: ?
Cc1c(Nc2cc(N3CCOCC3)c3nonc3c2[N+](=O)[O-])c(=O)n(-c2ccccc2)n1C
  A: nt; B: -4%; C: 3%; D: nt; E: nt
COc1cccc(Nc2cc(N3CCOCC3)c3nonc3c2[N+](=O)[O-])c1
  A: 2%; B: 0%; C: -4%; D: 18µM*; E: 21µM*
O=[N+]([O-])c1c(Nc2ccccc2O)cc(N2CCOCC2)c2nonc12
  A: -24%; B: -12%; C: nt; D: 15µM*; E: 16µM*
Cc1ccc(/C=C/C(=O)N2CCc3ccccc3C2)cc1
  A: -11%; B: -55%; C: -2%; D: ?; E: ?
Cc1cc2c(=O)n(CC(=O)N3CCN(c4ccccc4)CC3)cnc2s1
  A: -3%; B: -1%; C: 1%; D: -10%; E: -6%
FC(F)(F)c1cc(-c2ccccc2)nc(N2CCCCC2)n1
  A: 5%; B: 3%; C: 2%; D: -27%; E: -92%
O=C(O)C1CCCN1c1nc(-c2ccc(Cl)c(Cl)c2)cc(C(F)(F)F)n1 (stereo not drawn)
  A: -10%; B: nt; C: 1%; D: 21µM*; E: 15µM*
Cn1c(SCc2c(F)cccc2Cl)nc2c(c1=O)SCC2
  A: 5%; B: -7%; C: 8%; D: ?; E: -19%
CCN(c1ccc(OC)cc1)c1ncnc2nc[nH]c12
  A: 7%; B: 17%; C: 8%; D: ?; E: ?
Cc1cc(OCC(=O)NCc2cccnc2)ccc1[N+](=O)[O-]
  A: 5%; B: 1%; C: 4%; D: -10%; E: -2%
Cc1cc(OCC(=O)NC(C)c2ccccc2)ccc1[N+](=O)[O-] (stereo not drawn)
  A: -2%; B: -1%; C: 0%; D: 16µM*; E: 18µM*
COCOCCn1cc(CN2CCS(=O)(=O)N(Cc3ccc(-c4ccc(OC)cc4)cc3)C(C(C)C)C2=O)nn1 (stereo not drawn)
  A: nt; B: nt; C: nt; D: 16µM*; E: 15µM*
COCOCCn1cc(CN2CCS(=O)(=O)N(Cc3ccc(-c4ccncc4)cc3)C(CC(C)C)C2=O)nn1 (stereo not drawn)
  A: nt; B: nt; C: nt; D: ?; E: 23µM*
COCOCCn1cc(CN2CCS(=O)(=O)N(Cc3ccc(-c4ccncc4)cc3)C(C(C)C)C2=O)nn1 (stereo not drawn)
  A: nt; B: nt; C: nt; D: -98%; E: -99%
COCOCCn1cc(CN2CCS(=O)(=O)N(Cc3ccc(-c4ccc(Cl)nc4)cc3)C(C(C)C)C2=O)nn1 (stereo not drawn)
  A: nt; B: nt; C: nt; D: -1%; E: 7.3µM*
COCOCCn1cc(CN2CCS(=O)(=O)N(Cc3ccc(-c4ccc(Cl)nc4)cc3)C(C)C2=O)nn1 (stereo not drawn)
  A: nt; B: nt; C: nt; D: ?; E: -22%
COCOCCn1cc(CN2CCS(=O)(=O)N(Cc3ccc(-c4ccccc4)cc3)C(C(C)C)C2=O)nn1 (stereo not drawn)
  A: nt; B: nt; C: nt; D: 23µM*; E: ?
C=C(c1ccc(C(=O)O)cc1)c1cc2c(cc1C)C(C)(C)CCC2(C)C
  A: nt; B: nt; C: nt; D: ?; E: -11%
O=C(CCC(=O)c1ccccc1)Nc1ccccc1
  A: 8%; B: nt; C: nt; D: -26%; E: 12%
Cc1cnc(SCc2ccc(Cl)cc2Cl)[nH]c1=O
  A: 6%; B: -11%; C: nt; D: 21µM*; E: ?
Cc1cc(=O)[nH]c(SCc2ccc(Cl)cc2Cl)n1
  A: -13%; B: -4%; C: nt; D: 23µM*; E: -19%
Cc1cc(=O)[nH]c(SCc2cccc3ccccc23)n1
  A: 8%; B: -8%; C: nt; D: -26%; E: -1%
Cc1nnc(SCc2ccc(Cl)cc2Cl)[nH]c1=O
  A: -5%; B: -12%; C: 3%; D: -16%; E: -12%
Clc1ccc(Nc2nc(-c3ccccc3)c3cc(Cl)ccc3n2)cc1
  A: nt; B: -3%; C: -3%[12.3 µM]; D: -7%; E: 5%
COc1ccccc1Nc1nc(-c2ccccc2Cl)c2cc(Br)ccc2n1
  A: nt; B: 1%; C: -8%[12.3 µM]; D: 2.3µM*; E: 3.7µM*
Clc1ccccc1-c1nc(Nc2ccccc2)nc2ccc(Br)cc12
  A: nt; B: 3%; C: -10%[12.3 µM]; D: 18µM*; E: ?
CCOC(=O)C1C(=O)N(O)CC1c1cccc(Oc2ccccc2)c1 (stereo not drawn)
  A: -4%; B: 9%; C: 0%; D: -28%; E: 5%
Cc1cccn2c(=O)cc(COc3ccc(NC(=O)C(C)C)cc3)nc12
  A: nt; B: -2%; C: 3%; D: 2%; E: 4%
COc1ccc(N2CCN(c3oc(Cc4cccc5ccccc45)nc3C#N)CC2)cc1
  A: nt; B: -5%; C: 12%; D: 6.5µM*; E: ?
N#Cc1nc(Cc2cccc3ccccc23)oc1N1CCN(c2ccccc2)CC1
  A: nt; B: 3%; C: 2%; D: ?; E: ?
Cc1ccc(OCc2ccc(-c3nc(C#N)c(N4CCC(C)CC4)o3)o2)cc1
  A: nt; B: -8%; C: 1%; D: 21µM*; E: ?
COc1ccc(OCc2ccc(-c3nc(C#N)c(N4CCN(C)CC4)o3)o2)cc1
  A: nt; B: 0%; C: 10%; D: 15µM*; E: ?
CC1CCN(c2oc(-c3ccc(COc4ccccc4)o3)nc2C#N)CC1
  A: nt; B: -14%; C: 8%; D: 10µM*; E: 21µM*
COc1ccc(OCc2ccc(-c3nc(C#N)c(N4CCCCC4)o3)o2)cc1
  A: nt; B: 3%; C: 1%; D: ?; E: 1%
Cc1ccc2c(c1)c(-c1ccccc1)nc1nnnn12
  A: -3%; B: 3%; C: -4%; D: ?; E: -8%
O=C(/C(=C/O)N=Nc1ccccc1Cl)c1ccccc1
  A: -2%; B: 26%; C: 9%; D: ?; E: ?

Copied from the results shown for reference:
Letters – A = uPA generation; B = miR-21 reporter; C = TDP1 block; D = DT40 TDP1 no CPT; E = DT40 TDP1 CPT
COc1ccc(N2CCN(c3oc(Cc4cccc5ccccc45)nc3C#N)CC2)cc1
  A: nt; B: -5%; C: 12%; D: 6.5µM*; E: ?
N#Cc1nc(Cc2cccc3ccccc23)oc1N1CCN(c2ccccc2)CC1
  A: nt; B: 3%; C: 2%; D: ?; E: ?
Cc1ccc(OCc2ccc(-c3nc(C#N)c(N4CCC(C)CC4)o3)o2)cc1
  A: nt; B: -8%; C: 1%; D: 21µM*; E: ?
COc1ccc(OCc2ccc(-c3nc(C#N)c(N4CCN(C)CC4)o3)o2)cc1
  A: nt; B: 0%; C: 10%; D: 15µM*; E: ?
